Consider 74 compounds from PubChem BioAssay AID504490 (NMMLSC, 2011).

In general, inhibition refers to the relative decrease from the control value, in per cent.

The entries are a selection whose mix differs from that of the whole data set. Active and inactive are the calls of the source.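 How the source made its calls: active means inhibition above a set limit, near 3 SD of compounds lacking own fluorescence (cut at about 54% in these data); inactive means the rest.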

The test system of this experiment is beta-arrestin 1 C-terminal peptide binding to AP2 beta2-adaptin appendage (human). In words: inhibitors of beta-arrestin/AP2 binding, primary screen, biochemical, GPCR trafficking, flow cytometry (AID 504490).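 Further: plate controls were DMSO wells for no effect and 5 µM unlabelled arrestin peptide for full effect.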 The conditions noted are these: FITC-arrestin peptide / GST-AP2 beads, at 10 µM, active compounds read high, AP2 beta2 appendage carries R879A mutation. On the technique in general: In flow cytometry, cells or beads pass a laser one at a time.
Take `O=C(NCC1(N2CCCCC2)CCCCC1)c1cncc(Br)c1`: the inhibition is inactive: -18.3%.

For `CN1CCC(Nc2cccc(F)c2)CC1`, the inhibition is inactive: -2.73%.

As for `CCCOc1ccc(C(=O)NCC2(N(C)C)CCCCC2)cc1OC`, the inhibition was inactive: -13%.

As to `CC(C)c1ccc(NC2CCN(C(=O)OC(C)(C)C)CC2)cc1`, the inhibition is inactive: 21.8%.

As for `COc1ccc(CN(CCCl)CCCl)cc1Cl`, the inhibition was inactive: -18.5%.

On to `CN(C)c1cccc(C(=O)NCC2(N3CCCCC3)CCCCC2)c1`, for which the inhibition was inactive: 18.8%.

Regarding `COc1cc(OC)c(C(=O)NCC2(N(C)C)CCCCC2)cc1OC`, the inhibition was inactive: 39.8%.

As for `O=C(NCC1(N2CCOCC2)CCCCC1)c1cc(F)c(F)cc1Cl`, the inhibition is inactive: 4.04%.

In the case of `O=C(NCC1(N2CCCCC2)CCCCC1)c1cccc(C(F)(F)F)c1`, the inhibition is inactive: 0.83%.

On to `O=C(NCC1(N2CCOCC2)CCCCC1)c1cc(=O)[nH]c2ccccc12`, for which the inhibition is inactive: 15.4%.

`COc1cc(C(=O)NCC2(N3CCCCC3)CCCCC2)ccc1OC(F)F`: the inhibition is inactive: -8.89%.

With `CC(C)c1ccc(C(=O)NCC2(N3CCOCC3)CCCCC2)cc1`, the inhibition is inactive: -1.92%.

For `COc1ccc(NC2CCN(C(=O)OC(C)(C)C)CC2)cc1`, the inhibition was inactive: 12%.

For the compound `CN1CCN(CCOC(=O)C(O)(c2ccccc2)c2ccccc2)CC1`, the inhibition is inactive: 4.75%.

As for `O=C(NCC1(N2CCCCC2)CCCCC1)c1ccc(OC(F)F)cc1`, the inhibition was inactive: 0.47%.

On to `CCN1CCC(Nc2ccc(Cl)cc2)CC1`, for which the inhibition is inactive: 15.3%.

As for `N#CC1(Nc2ccccc2)CCN(CCc2ccccc2)CC1`, the inhibition is inactive: 37.7%.

For `CSc1ccc(C(=O)NCC2(N3CCOCC3)CCCCC2)cc1`, the inhibition is inactive: 36%.

As to `O=C(NCC1(N2CCCCC2)CCCCC1)c1cccc([N+](=O)[O-])c1`, the inhibition was inactive: 31.8%.

Take `COc1cc(C(=O)NCC2(N(C)C)CCCCC2)ccc1OC(F)F`: the inhibition was inactive: -0.92%.

For the compound `CCOC(=O)N1CCC(Nc2cccc(C)c2)CC1`, the inhibition is inactive: 5.01%.

For `O=C1CCN(Cc2ccccc2)CC1`, the inhibition is inactive: 14.4%.

For the compound `CCOc1ccc(C)cc1CN(CCCl)CCCl`, the inhibition is inactive: -0.47%.

For `O=C(NCC1(N2CCCCC2)CCCCC1)c1ccc(F)cc1`, the inhibition is inactive: -13.5%.

As for `CCCCOc1ccc(C(=O)NCC2(N3CCOCC3)CCCCC2)cc1`, the inhibition was inactive: 44.6%.

In the case of `O=P1(N(CCCl)CCCl)SCCCS1`, the inhibition is inactive: 20.3%.

Take `CCOC(=O)N1CCC(Nc2ccc(F)cc2)CC1`: the inhibition is inactive: 3.96%.

Take `COc1ccc(NC2CCN(CCc3ccccc3)CC2)c(OC)c1`: the inhibition is inactive: 29.8%.

`O=C(NCC1(N2CCCCC2)CCCCC1)c1ccc(Cl)nc1`: the inhibition was inactive: -1.54%.

In the case of `Cc1cc(C)cc(N(C(=O)c2ccccc2)C2CCN(C(=O)OC(C)(C)C)CC2)c1`, the inhibition was inactive: 0.98%.

With `O=C(NCC1(N2CCOCC2)CCCCC1)c1cc2ccccc2o1`, the inhibition is inactive: -5.81%.

Regarding `O=C(OC1CN2CCC1CC2)C1c2ccccc2Oc2ccccc21` (centres undefined), the inhibition was inactive: -8.81%.

For the compound `N#CC1(Nc2ccccc2)CCN(Cc2ccccc2)CC1`, the inhibition is inactive: 2.57%.

With `O=C(NCC1(N2CCCCC2)CCCCC1)c1ccc(Cl)s1`, the inhibition is inactive: 11.3%.

With `COc1ccc(Cl)cc1C(=O)NCC1(N2CCOCC2)CCCCC1`, the inhibition is inactive: -5.85%.

Regarding `CCOC(=O)N1CCC(Nc2ccc(OC)cc2)CC1`, the inhibition is inactive: 1.54%.

As to `COc1ccc(C(=O)NCC2(N3CCCCC3)CCCCC2)cc1`, the inhibition was inactive: 6.79%.

As to `CC(C)(C)OC(=O)N1CCC(N(C(=O)c2ccccc2)c2ccc(F)cc2)CC1`, the inhibition is inactive: 11.1%.

For `COc1ccc(C(=O)NCC2(N3CCCCC3)CCCCC2)c(OC)c1OC`, the inhibition is inactive: -6.29%.

`O=C(NCC1(N2CCCCC2)CCCCC1)c1ccc(=O)[nH]c1`: the inhibition is inactive: 2.45%.

For `O=C(NCC1(N2CCCCC2)CCCCC1)c1cccs1`, the inhibition was inactive: 4.86%.

For `CSc1ccccc1C(=O)NCC1(N2CCCCC2)CCCCC1`, the inhibition is inactive: 18.9%.

As to `Cc1cccc(NC2(C#N)CCN(Cc3ccccc3)CC2)c1`, the inhibition is inactive: 10.2%.

Take `COc1cccc(C(=O)N(c2cc(C)cc(C)c2)C2CCN(C(=O)OC(C)(C)C)CC2)c1`: the inhibition was inactive: -7.8%.

Regarding `COc1cc(OC)cc(C(=O)NCC2(N3CCOCC3)CCCCC2)c1`, the inhibition is inactive: -29.3%.

As for `CCC(CO)(C(=O)OC1CN2CCC1CC2)c1ccccc1` (centres undefined), the inhibition is inactive: 12.1%.

In the case of `CN1CCC(Nc2ccc(Cl)cc2)CC1`, the inhibition is inactive: 10.8%.

As for `CCOc1ncccc1C(=O)NCC1(N2CCOCC2)CCCCC1`, the inhibition is inactive: 1.5%.

For the compound `CN1CCC(Nc2ccc(F)c(Cl)c2)CC1`, the inhibition is inactive: 9.3%.

On to `CC(C)(C)OC(=O)N1CCC(Nc2ccccc2)CC1`, for which the inhibition was inactive: -4.97%.

Regarding `O=C(O)C1(Nc2ccccc2)CCN(Cc2ccccc2)CC1`, the inhibition was inactive: -5.2%.

With `CCCOc1ccc(C(=O)NCC2(N(C)C)CCCCC2)cc1`, the inhibition was inactive: -14.8%.

With `Cc1ccccc1NC1(C#N)CCN(Cc2ccccc2)CC1`, the inhibition is inactive: 15.1%.

For `CCN1CCC(Nc2cccc(F)c2)CC1`, the inhibition was inactive: -1.83%.

For `O=C(NCC1(N2CCCCC2)CCCCC1)c1ccco1`, the inhibition was inactive: -4.79%.

Consider `Cn1c(=O)[nH]cc(N(CCCl)CCCl)c1=O`, for which the inhibition is inactive: 7.43%.

Consider `CN(C)c1ccc(C(=O)NCC2(N3CCCCC3)CCCCC2)cc1`, for which the inhibition was inactive: 27.9%.

In the case of `CC(=O)N(c1ccccc1)C1CCNCC1`, the inhibition is inactive: 30.1%.

Turning to `COc1cc(OC)cc(C(=O)NCC2(N3CCCCC3)CCCCC2)c1`, the inhibition is inactive: 17.8%.

On to `Cc1ccc(C(=O)NCC2(N3CCCCC3)CCCCC2)o1`, for which the inhibition is inactive: 8.53%.

In the case of `Fc1ccccc1NC1CCN(Cc2ccccc2)CC1`, the inhibition is inactive: 4.6%.

Take `Cc1ccc(NC2(C#N)CCN(Cc3ccccc3)CC2)cc1`: the inhibition is inactive: 5.7%.

As to `CN(C)C1(CNC(=O)c2cccc(C#N)c2)CCCCC1`, the inhibition was inactive: -5.65%.

For the compound `c1ccc(CN2CCC(Nc3ccccc3)CC2)cc1`, the inhibition is inactive: 2%.

In the case of `Cc1cc(N(CCCl)CCCl)ccc1C=O`, the inhibition was inactive: -3.39%.

`CCCN1CCC(Nc2cc(OC)cc(OC)c2)CC1`: the inhibition was inactive: -15%.

For `N#Cc1ccc(C(=O)NCC2(N3CCCCC3)CCCCC2)cc1`, the inhibition is inactive: -2.17%.

Regarding `CC(C)(C)OC(=O)N1CCC(N(C(=O)c2ccccc2)c2ccc(Cl)cc2)CC1`, the inhibition was inactive: 5.74%.

With `CCOC(=O)N1CCC(Nc2ccc(C)cc2)CC1`, the inhibition was inactive: 47.6%.

For the compound `N/C(=N\O)c1c(N)no[n+]1[O-]`, the inhibition was inactive: -8.67%.

For the compound `O=C(OC1CN2CCC1CC2)C1c2ccccc2C=Cc2ccccc21` (centres undefined), the inhibition is inactive: -4.11%.

As to `COc1cc(C(=O)NCC2(N3CCOCC3)CCCCC2)cc(OC)c1C`, the inhibition is inactive: -5.89%.

`O=C(NCC1(N2CCOCC2)CCCCC1)c1cc(Br)ccc1Cl`: the inhibition is inactive: -8.98%.

Consider `COc1ccc(C(=O)NCC2(N3CCOCC3)CCCCC2)cc1OC`, for which the inhibition was inactive: 9.5%.
